Biological target: T1, complement component C5 (UniProt P01031 19-1676, limits assumed)
T1 construct: Mature C5 is a disulfide-linked alpha/beta heterodimer made from one precursor; also called complement factor 5 (C5) protein
Experiment: in vitro complex size study; Pozelimab added to pre-formed Eculizumab*:C5 complexes, Pozelimab in excess (5:1:1 pozelimab:eculizumab*:C5)

B1: Pozelimab (antibody, V domains shown)
VH: QVQLQESGPGLVKPSETLSLTCTVSGDSVSSSYWTWIRQPPGKGLEWIGYIYYSGSSNYNPSLKSRATISVDTSKNQFSLKLSSVTAADTAVYYCAREGNVDTTMIFDYWGQGTLVTVSS
VL: AIQMTQSPSSLSASVGDRVTITCRASQGIRNDLGWYQQKPGKAPKLLIYAASSLQSGVPSRFAGRGSGTDFTLTISSLQPEDFATYYCLQDFNYPWTFGQGTKVEIKR
- percent of complexes that were trimeric or pentameric (2:1 or 3:2 mAb:C5 molar ratios): ~86%

Reference: patent US20240175027A1 (Regeneron, published 2024)
